Measurements reported in US9663512B2, “Bicyclic heterocycle compounds and their uses in therapy” (ASTEX THERAPEUTICS LIMITED, priority 2012, dated 2017).
Where a name gives a salt, the structure may show the parent alone.

By UniProt entry, the sequences of proteins in these tests, tags left out. Residues count along the entry.
UniProt Q13490, 267-363: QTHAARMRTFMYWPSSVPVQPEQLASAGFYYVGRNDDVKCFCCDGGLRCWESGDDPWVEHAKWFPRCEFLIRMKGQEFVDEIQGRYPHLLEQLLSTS
UniProt P98170, 252-350: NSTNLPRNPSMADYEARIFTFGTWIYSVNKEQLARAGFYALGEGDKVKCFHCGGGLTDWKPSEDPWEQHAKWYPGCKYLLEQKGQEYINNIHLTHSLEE

Columns and labels:
[1] = biological target: T1, BIR3 domain of human cIAP-1 (Homo sapiens, UniProt Q13490); experiment: cIAP-1 in vitro competitive displacement binding assay (fluorescence polarization); details: read-out: cIAP1 IC50 or PI (percent inhibition)
T1 construct: human cIAP-1 (residues 267-363) fused to a GST-tag; GST-tag (cleaved yes); made in house; host or cells: Escherichia coli

[2] = biological target: T2, BIR3 domain of human XIAP (Homo sapiens, UniProt P98170); experiment: XIAP in vitro competitive displacement binding assay (fluorescence polarization); details: read-out: Xiap IC50 or PI (percent inhibition)
T2 construct: BIR3 domain of human XIAP (residues 252-350) fused to a His-tag; His-tag (cleaved yes); made in house; host or cells: Escherichia coli

| SMILES | inhibition at 0.012 µM [1] [%] | inhibition at 0.04 µM [2] [%] | inhibition at 0.12 µM ([2]; at 0.12 μM) [%] |
| --- | --- | --- | --- |
| Cc1cc(C)n(C[C@H]2CN[C@H](C)CN2CC(=O)N2CC(C)(C)c3ncc(Cc4ccc(F)cc4)cc32)n1 [Example 1, 2-[(2R,5R)-2-[(3,5-Dimethyl-1H-pyrazol-1-yl)methyl]-5-methylpiperazin-1-yl]-1-{6-[(4-fluorophenyl)methyl]-3,3-dimethyl-1H,2H,3H-pyrrolo[3,2-b]pyridin-1-yl}ethan-1-one, dihydrochloride] | 98 |  |  |
| Cc1cn(C[C@H]2CN[C@H](C)CN2CC(=O)N2CC(C)(C)c3ncc(Cc4ccc(F)cc4)cc32)c(C)n1 [Example 7, 2-[(2R,5R)-2-[(2,4-Dimethyl-1H-imidazol-1-yl)methyl]-5-methylpiperazin-1-yl]-1-{6-[(4-fluorophenyl)methyl]-3,3-dimethyl-1H,2H,3H-pyrrolo[3,2-b]pyridin-1-yl}ethan-1-one, dihydrochloride] | 100 | 41 |  |
| Cc1cn(C[C@H]2CN[C@H](C)CN2CC(=O)N2CC(C)(C)c3ncc(Cc4ccc(F)cc4)cc32)nn1 [Example 16, 1-{6-[(4-Fluorophenyl)methyl]-3,3-dimethyl-1H,2H,3H-pyrrolo[3,2-b]pyridin-1-yl}-2-[(2R,5R)-5-methyl-2-[(4-methyl-1H-1,2,3-triazol-1-yl)methyl]piperazin-1-yl]ethan-1-one, dihydrochloride] | 93 |  | 52 |
| C[C@@H]1CN(CC(=O)N2CC(C)(C)c3ncc(Cc4ccc(F)cc4)cc32)[C@@H](Cn2ccnc2)CN1 [Example 6, 1-{6-[(4-Fluorophenyl)methyl]-3,3-dimethyl-1H,2H,3H-pyrrolo[3,2-b]pyridin-1-yl}-2-[(2R,5R)-2-(1H-imidazol-1-ylmethyl)-5-methylpiperazin-1-yl]ethan-1-one, dihydrochloride] | 89 |  |  |
| Cc1cncn1C[C@H]1CN[C@H](C)CN1CC(=O)N1CC(C)(C)c2ncc(Cc3ccc(F)cc3)cc21 (single isomer, unassigned) [Example 14, dihydrochloride] | 98 | 38 |  |
| Cc1cnnn1C[C@H]1CN[C@H](C)CN1CC(=O)N1CC(C)(C)c2ncc(Cc3ccc(F)cc3)cc21 [Example 15, 1-{6-[(4-Fluorophenyl)methyl]-3,3-dimethyl-1H,2H,3H-pyrrolo[3,2-b]pyridin-1-yl}-2-[(2R,5R)-5-methyl-2-[(5-methyl-1H-1,2,3-triazol-1-yl)methyl]piperazin-1-yl]ethan-1-one, dihydrochloride] | 85 |  |  |
| Cc1cn(C[C@H]2CN[C@H](C)CN2CC(=O)N2CC(C)(C)c3ncc(Cc4ccc(F)cc4)cc32)cn1 (single isomer, unassigned) [Example 13, dihydrochloride] | 97 | 38 |  |
